The results in this text go back to patent publication US7223725 (AMYLIN PHARMACEUTICALS, dated 2007).

pIC50: −log10 of the molar value.

In general, pIC50 refers to −log10 of the IC50, conventionally taken in molar units. Low readings indicate a high IC50, high ones a low IC50.

The target of the test is GLP-1 receptor (on RINm5f membranes) (UniProt P32301). Put plainly: displacement of [125I]GLP-1 or [125I]exendin(9-39) from RINm5f membranes, filtration. A general note: In a radioligand displacement assay an active substance lowers the binding of a labelled ligand.

Exendin-4 (peptide) had a pIC50 of 9.15.
